Test results from the Kinase Knowledgebase extract (Sharma et al. 2016).

The chains behind the UniProt entries cited, without tags or fusion partners. Where a name states a change or a piece, a line headed by the entry shows the natural chain unless it says otherwise.
UniProt O00329: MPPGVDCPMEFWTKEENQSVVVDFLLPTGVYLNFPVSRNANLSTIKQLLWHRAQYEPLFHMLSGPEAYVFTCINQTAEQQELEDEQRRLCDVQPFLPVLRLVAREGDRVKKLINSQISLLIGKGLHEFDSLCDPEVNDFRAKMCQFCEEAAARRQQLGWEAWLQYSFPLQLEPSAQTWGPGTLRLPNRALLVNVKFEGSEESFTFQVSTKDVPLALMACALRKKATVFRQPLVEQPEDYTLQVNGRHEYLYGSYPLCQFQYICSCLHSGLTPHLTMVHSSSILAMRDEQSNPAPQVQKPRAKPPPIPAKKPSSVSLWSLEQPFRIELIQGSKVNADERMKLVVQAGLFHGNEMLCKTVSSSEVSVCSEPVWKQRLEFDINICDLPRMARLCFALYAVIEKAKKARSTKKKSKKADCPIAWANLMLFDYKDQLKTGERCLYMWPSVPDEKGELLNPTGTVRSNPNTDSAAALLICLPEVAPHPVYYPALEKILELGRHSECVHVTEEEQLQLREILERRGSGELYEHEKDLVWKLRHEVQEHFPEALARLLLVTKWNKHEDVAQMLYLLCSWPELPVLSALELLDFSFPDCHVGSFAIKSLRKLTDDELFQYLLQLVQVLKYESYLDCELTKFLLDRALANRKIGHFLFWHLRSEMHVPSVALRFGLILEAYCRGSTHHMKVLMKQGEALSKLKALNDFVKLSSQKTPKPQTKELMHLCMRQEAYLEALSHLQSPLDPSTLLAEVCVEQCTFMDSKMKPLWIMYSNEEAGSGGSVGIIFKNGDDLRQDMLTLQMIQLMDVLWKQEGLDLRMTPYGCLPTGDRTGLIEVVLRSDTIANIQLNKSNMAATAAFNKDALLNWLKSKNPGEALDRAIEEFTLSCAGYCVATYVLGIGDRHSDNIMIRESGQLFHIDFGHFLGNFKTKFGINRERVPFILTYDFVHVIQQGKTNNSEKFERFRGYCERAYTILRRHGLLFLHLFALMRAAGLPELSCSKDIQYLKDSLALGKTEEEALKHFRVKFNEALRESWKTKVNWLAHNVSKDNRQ

Tests used:
[1] = target: PIK3CD (Human) (UniProt O00329); assay: Inhibition of PIK3CD Kinase Activity (Scintillation Proximity Assay)
[2] = target: PIK3CD (Human) (UniProt O00329); assay: Inhibition of PIK3CD Kinase Activity (AlphaScreen Assay)
[3] = target: PIK3CD (Human) (UniProt O00329); assay: Inhibition of PIK3CD Kinase Activity

| Compound | IC50 [1] [nM] | IC50 [2] [nM] | IC50 [3] [nM] |
| --- | --- | --- | --- |
| Cc1csc2nc(C(C)Nc3ncnc4[nH]cnc34)c(-c3cccc(F)c3)c(=O)n12 (stereo unspecified) | < 50 | < 50 | < 50 |
| Cc1csc2nc([C@H](C)Nc3ccnc4[nH]cnc34)c(-c3cccc(F)c3)c(=O)n12 | < 50 | – | – |
| Cc1csc2nc([C@H](C)Nc3ncnc4[nH]cnc34)c(-c3cccc(F)c3)c(=O)n12 | < 50 | – | < 50 |
